For this data set, the target named is F-actin prepared from acetone powder of rabbit muscle, P68135. Kind of data set: stopped-flow light scattering at 340 nm, 15 °C; acto-HMM with MgADP mixed with MgATP.

Results on one protein are retold here after patent US7276644.

B1: recombinant wild type chicken smooth muscle myosin HMM (protein)
chain 1: MSQKPLSDDEKFLFVDKNFVNNPLAQADWSAKKLVWVPSEKHGFEAASIKEEKGDEVTVELQENGKKVTLSKDDIQKMNPPKFSKVEDMAELTCLNEASVLHNLRERYFSGLIYTYSGLFCVVINPYKQLPIYSEKIIDMYKGKKRHEMPPHIYAIADTAYRSMLQDREDQSILCTGESGAGKTENTKKVIQYLAVVASSHKGKKDTSITQGPSFSYGELEKQLLQANPILEAFGNAKTVKNDNSSRFGKFIRINFDVTGYIVGANIETYLLEKSRAIRQAKDERTFHIFYYLIAGASEQMRNDLLLEGFNNYTFLSNGHVPIPAQQDDEMFQETLEAMTIMGFTEEEQTSILRVVSSVLQLGNIVFKKERNTDQASMPDNTAAQKVCHLMGINVTDFTRSILTPRIKVGRDVVQKAQTKEQADFAIEALAKAKFERLFRWILTRVNKALDKTKRQGASFLGILDIAGFEIFEINSFEQLCINYTNEKLQQLFNHTMFILEQEEYQREGIEWNFIDFGLDLQPCIELIERPTNPPGVLALLDEECWFPKATDTSFVEKLIQEQGNHAKFQKSKQLKDKTEFCILHYAGKVTYNASAWLTKNMDPLNDNVTSLLNQSSDKFVADLWKDVDRIVGLDQMAKMTESSLPSASKTKKGMFRTVGQLYKEQLTKLMTTLRNTNPNFVRCIIPNHEKRAGKLDAHLVLEQLRCNGVLEGIRICRQGFPNRIVFQEFRQRYEILAANAIPKGFMDGKQACILMIKALELDPNLYRIGQSKIFFRTGVLAHLEEERDLKITDVIIAFQAQCRGYLARKAFAKRQQQLTAMKVIQRNCAAYLKLRNWQWWRLFTKVKPLLQVTRQEEEMQAKDEELQRTKERQQKAEAELKELEQKHTQLCEEKNLLQEKLQAETELYAEAEEMRVRLAAKKQELEEILHEMEARIEEEEERSQQLQAEKKKMQQQMLDLEEQLEEEEAARQKLQLEKVTADGKIKKMEDDILIMEDQNNKLTKERKLLEERVSDLTTNLAEEEEKAKNLTKLKNKHESMISELEVRLKKEEKSRQELEKIKRKLEGESSDLHEQIAELQAQIAELKAQLAKKEEELQAALARLEDETSQKNNALKKIRELESHISDLQEDLESEKAARNKAEKQKRDLSEELEALKTELEDTLDTTATQQELR
chain 2: SSKRAKAKTTKKRPQRATSNVFAMFDQSQIQEFKEAFNMIDQNRDGFIDKEDLHDMLASMGKNPTDEYLEGMMSEAPGPINFTMFLTMFGEKLNGTDPEDVIRNAFACFDEEASGFIHEDHLRELLTTMGDRFTDEEVDEMYREAPIDKKGNFNYVEFTRILKHGAKDKDD
chain 3: CDFSEEQTAEFKEAFQLFDRTGDGKILYSQCGDVMRALGQNPTNAEVMKVLGNPKSDEMNLKTLKFEQFLPMMQTIAKNKDQGCFEDYVEGLRVFDKEGNGTVMGAEIRHVLVTLGEKMTEEEVEQLVAGHEDSNGCINYEELVRMVLSG
For B1, the “Kobs for acto-HMM-ADP dissociation against 2.5 and 5.0 mM MgATP” value is “Kobs for acto-HMM-ADP dissociation against 2.5 and 5.0 mM MgATP was identical for both mutant and wild-type SmM HMM's, yielding rates of 46 s^-1”.
